Laboratory results taken from ChEMBL document CHEMBL5252638, “Novel triphenylphosphonium amphiphilic conjugates of glycerolipid type: synthesis, cytotoxic and antibacterial activity, and targeted cancer cell delivery” (RSC Med Chem, 2023).

Species: Homo sapiens
Assay: Selectivity index, ratio of IC50 for human Chang liver cells to IC50 for human A549 cells

Structure (SMILES): O=c1[nH]cc(F)c(=O)[nH]1 [FLUOROURACIL]
- Ratio IC50: 1.9
